System: Cys-βAla-Leu-Arg-Arg-Ala-Ser-Leu-Gly-NH2

Protein kinase A
signal intensity of the spot (32P incorporation, PhosphorImager) on modified glass, against the Ser->Ala control peptide: the signal for the substrate amino acid sequence is a factor of 4-5 larger than the signal for the corresponding control amino acid sequence
signal intensity of the spot (32P incorporation, PhosphorImager) on modified glass, against the Ser->Ala control peptide (FIG. 4): The signal intensity for the purified amino acid sequence is approximately 300 times higher than that for the corresponding control amino acid sequence
signal intensity of the spot (32P incorporation, PhosphorImager) on modified glass, against the Ser->Ala control peptide (FIG. 5): the signal intensity for the substrate amino acid sequence is 800% higher than that for the control product
signal intensity of the spot (32P incorporation, PhosphorImager) on modified glass, purified peptide against the raw synthesis product of the same peptide (FIG. 4): the signal intensity for the purified amino acid sequence is 500% higher than that for the synthesis product
